US20220017487A1, “DEUTERATED COMPOUNDS AND USES THEREOF” (X4 Pharmaceuticals, Inc., priority 2020, published 2022)

By UniProt entry, the sequences of proteins in these tests, tags left out.
UniProt P61073, whole entry: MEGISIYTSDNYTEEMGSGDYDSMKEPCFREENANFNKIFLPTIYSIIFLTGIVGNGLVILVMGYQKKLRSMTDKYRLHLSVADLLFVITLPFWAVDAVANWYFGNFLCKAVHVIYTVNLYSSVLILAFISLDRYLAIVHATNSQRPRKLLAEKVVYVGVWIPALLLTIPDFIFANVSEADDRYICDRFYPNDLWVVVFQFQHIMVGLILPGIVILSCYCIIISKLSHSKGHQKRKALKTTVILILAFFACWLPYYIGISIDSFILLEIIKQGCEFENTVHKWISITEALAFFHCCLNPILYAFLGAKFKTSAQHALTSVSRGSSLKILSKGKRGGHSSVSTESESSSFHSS

Legend:
[1] = biological target: CXCR4 (CXCR-4 transfected U87 cell line, U87.CXCR4) (Homo sapiens, UniProt P61073); assay: Intracellular CXCL-12-induced calcium mobilization assay (FLIPR), inhibition of Ca2+ signalling; type: cell-based; details: U87.CD4+.CXCR4+ cells, CXCL-12 25-50 ng/mL
[2] = biological target: CXCR4 (Jurkat cells expressing CXCR4) (Homo sapiens, UniProt P61073); assay: Chemokine (CXCL12-AF647) binding inhibition assay, flow cytometry; details: CXCL12-AF647 25 ng/mL
[3] = average of runs 1-4, read-out: Inhibition of Ca2+ Signalling, AVERAGE IC50
[4] = experiment 1, read-out: Inhibition of Ca2+ Signalling, IC50, run 1
[5] = experiment 2, read-out: Inhibition of Ca2+ Signalling, IC50, run 2
[6] = experiment 3, read-out: Inhibition of Ca2+ Signalling, IC50, run 3
[7] = experiment 4, read-out: Inhibition of Ca2+ Signalling, IC50, run 4
[8] = average of the two determinations, read-out: Inhibition of CXCL12 Binding, AVERAGE IC50
[9] = first determination, read-out: Inhibition of CXCL12 Binding, IC50
[10] = second determination, read-out: Inhibition of CXCL12 Binding, IC50

Row | SMILES | IC50 [1, 3] [nM] | IC50 [1, 4] [nM] | IC50 [1, 5] [nM] | IC50 [1, 6] [nM] | IC50 [1, 7] [nM] | IC50 [2, 8] [nM] | IC50 [2, 9] [nM] | IC50 [2, 10] [nM]
1 | O=C(O)C(F)(F)F.[2H]c1c([2H])c([2H])c2[nH]c(CN(CCCCN)[C@H]3CCCc4cccnc43)nc2c1[2H] [Compound I-36] | 21.3 | 27.2 | 14.3 | 14.9 | 28.9 | 10.3 | 9.5 | 11.1
2 | NCCCCN(Cc1nc2ccccc2[nH]1)[C@H]1CCCc2cccnc21 [Compound X4P-001, mavorixafor] | 13.1 | 19.9 | 11 | 7.87 | 13.9 | 3.1 | 3.2 | 3

Like-named read-outs stand apart in the source and are kept apart here.
